ChEMBL document CHEMBL5034035, “Discovery of an Oxycyclohexyl Acid Lysophosphatidic Acid Receptor 1 (LPA1) Antagonist BMS-986278 for the Treatment of Pulmonary Fibrotic Diseases” (J Med Chem, 2021)

Amino acid sequences for entries named in this document (tags omitted). A change or cut given only in a name is not applied to a line headed by its entry.
UniProt P61793: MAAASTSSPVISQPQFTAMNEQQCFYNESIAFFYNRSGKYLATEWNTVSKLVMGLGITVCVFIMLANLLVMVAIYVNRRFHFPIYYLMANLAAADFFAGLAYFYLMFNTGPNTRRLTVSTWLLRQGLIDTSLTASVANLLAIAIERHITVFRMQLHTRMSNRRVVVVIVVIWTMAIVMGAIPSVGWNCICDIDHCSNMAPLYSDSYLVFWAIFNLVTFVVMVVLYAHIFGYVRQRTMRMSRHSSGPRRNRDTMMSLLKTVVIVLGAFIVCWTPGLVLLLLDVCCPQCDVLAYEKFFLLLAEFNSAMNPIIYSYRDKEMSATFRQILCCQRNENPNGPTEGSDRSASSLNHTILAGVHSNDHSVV

Target: Lysophosphatidic acid receptor 1 (Mus musculus) (UniProt P61793)
Assay: Antagonist activity at mouse LPA1 receptor expressed in CHO cells assessed as inhibition of LPA stimulated calcium flux incubated for 20 mins followed by LPA stimulation and measured for 90 seconds
Assay type: functional, cell-based
Details: filed as antagonist

- Kb: 1.4 nM
SMILES: Cc1nc(-c2nnn(C)c2COC(=O)N(C)CC2CCC2)ccc1O[C@H]1CCC[C@H](C(=O)O)C1
